Data published in US20230348465A1, “IBOGAINE ANALOGS AS THERAPEUTICS FOR NEUROLOGICAL AND PSYCHIATRIC DISORDERS” (The Trustees of Columbia University in the City of New York, priority 2020, published 2023).

Chains of the proteins cited; added tags and fusions are not shown.
UniProt Q01827, whole entry: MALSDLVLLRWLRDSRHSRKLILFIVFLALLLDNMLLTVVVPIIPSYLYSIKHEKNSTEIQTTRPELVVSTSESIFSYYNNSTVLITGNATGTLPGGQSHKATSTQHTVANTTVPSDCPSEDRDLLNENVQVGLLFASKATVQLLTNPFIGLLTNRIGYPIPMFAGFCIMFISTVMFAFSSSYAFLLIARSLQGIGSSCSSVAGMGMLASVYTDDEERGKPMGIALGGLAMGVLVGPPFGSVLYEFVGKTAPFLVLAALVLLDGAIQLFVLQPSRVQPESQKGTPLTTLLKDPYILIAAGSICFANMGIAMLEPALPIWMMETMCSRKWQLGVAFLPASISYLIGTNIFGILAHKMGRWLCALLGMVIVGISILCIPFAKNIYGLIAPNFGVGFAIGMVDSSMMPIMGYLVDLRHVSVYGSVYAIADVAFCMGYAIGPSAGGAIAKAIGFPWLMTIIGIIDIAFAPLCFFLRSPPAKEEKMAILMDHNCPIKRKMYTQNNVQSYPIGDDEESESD

Target: rVMAT2 (Rattus norvegicus, UniProt Q01827)
Assay: rVMAT2 screening assay: inhibition of uptake of the fluorescent substrate FFN206 in stably transfected rVMAT2-HEK cells

COC(=O)[C@H]1[C@H]2C[C@@H]3c4[nH]c5cc(OC)ccc5c4CCN3C[C@H]2C[C@@H](OC(=O)c2cc(OC)c(OC)c(OC)c2)[C@@H]1OC [Reserpine, reference compound]
IC50: 17 ± 5.5 nM
Ki: 11 ± 3.1 nM
